From patent US20250282834A1, “PEPTIDE INHIBITORS FOR CHROMODOMAIN HELICASE DNA BINDING PROTEIN 4 (CHD4)” (THE REGENTS OF THE UNIVERSITY OF CALIFORNIA, priority 2022, published 2025)
Entries after “also recorded” stand apart in the source; their conditions may differ.

Sequences of proteins named here, by UniProt entry; tags and fusion partners are left off. A change or cut given only in a name is not applied to a line headed by its entry.
UniProt Q14839: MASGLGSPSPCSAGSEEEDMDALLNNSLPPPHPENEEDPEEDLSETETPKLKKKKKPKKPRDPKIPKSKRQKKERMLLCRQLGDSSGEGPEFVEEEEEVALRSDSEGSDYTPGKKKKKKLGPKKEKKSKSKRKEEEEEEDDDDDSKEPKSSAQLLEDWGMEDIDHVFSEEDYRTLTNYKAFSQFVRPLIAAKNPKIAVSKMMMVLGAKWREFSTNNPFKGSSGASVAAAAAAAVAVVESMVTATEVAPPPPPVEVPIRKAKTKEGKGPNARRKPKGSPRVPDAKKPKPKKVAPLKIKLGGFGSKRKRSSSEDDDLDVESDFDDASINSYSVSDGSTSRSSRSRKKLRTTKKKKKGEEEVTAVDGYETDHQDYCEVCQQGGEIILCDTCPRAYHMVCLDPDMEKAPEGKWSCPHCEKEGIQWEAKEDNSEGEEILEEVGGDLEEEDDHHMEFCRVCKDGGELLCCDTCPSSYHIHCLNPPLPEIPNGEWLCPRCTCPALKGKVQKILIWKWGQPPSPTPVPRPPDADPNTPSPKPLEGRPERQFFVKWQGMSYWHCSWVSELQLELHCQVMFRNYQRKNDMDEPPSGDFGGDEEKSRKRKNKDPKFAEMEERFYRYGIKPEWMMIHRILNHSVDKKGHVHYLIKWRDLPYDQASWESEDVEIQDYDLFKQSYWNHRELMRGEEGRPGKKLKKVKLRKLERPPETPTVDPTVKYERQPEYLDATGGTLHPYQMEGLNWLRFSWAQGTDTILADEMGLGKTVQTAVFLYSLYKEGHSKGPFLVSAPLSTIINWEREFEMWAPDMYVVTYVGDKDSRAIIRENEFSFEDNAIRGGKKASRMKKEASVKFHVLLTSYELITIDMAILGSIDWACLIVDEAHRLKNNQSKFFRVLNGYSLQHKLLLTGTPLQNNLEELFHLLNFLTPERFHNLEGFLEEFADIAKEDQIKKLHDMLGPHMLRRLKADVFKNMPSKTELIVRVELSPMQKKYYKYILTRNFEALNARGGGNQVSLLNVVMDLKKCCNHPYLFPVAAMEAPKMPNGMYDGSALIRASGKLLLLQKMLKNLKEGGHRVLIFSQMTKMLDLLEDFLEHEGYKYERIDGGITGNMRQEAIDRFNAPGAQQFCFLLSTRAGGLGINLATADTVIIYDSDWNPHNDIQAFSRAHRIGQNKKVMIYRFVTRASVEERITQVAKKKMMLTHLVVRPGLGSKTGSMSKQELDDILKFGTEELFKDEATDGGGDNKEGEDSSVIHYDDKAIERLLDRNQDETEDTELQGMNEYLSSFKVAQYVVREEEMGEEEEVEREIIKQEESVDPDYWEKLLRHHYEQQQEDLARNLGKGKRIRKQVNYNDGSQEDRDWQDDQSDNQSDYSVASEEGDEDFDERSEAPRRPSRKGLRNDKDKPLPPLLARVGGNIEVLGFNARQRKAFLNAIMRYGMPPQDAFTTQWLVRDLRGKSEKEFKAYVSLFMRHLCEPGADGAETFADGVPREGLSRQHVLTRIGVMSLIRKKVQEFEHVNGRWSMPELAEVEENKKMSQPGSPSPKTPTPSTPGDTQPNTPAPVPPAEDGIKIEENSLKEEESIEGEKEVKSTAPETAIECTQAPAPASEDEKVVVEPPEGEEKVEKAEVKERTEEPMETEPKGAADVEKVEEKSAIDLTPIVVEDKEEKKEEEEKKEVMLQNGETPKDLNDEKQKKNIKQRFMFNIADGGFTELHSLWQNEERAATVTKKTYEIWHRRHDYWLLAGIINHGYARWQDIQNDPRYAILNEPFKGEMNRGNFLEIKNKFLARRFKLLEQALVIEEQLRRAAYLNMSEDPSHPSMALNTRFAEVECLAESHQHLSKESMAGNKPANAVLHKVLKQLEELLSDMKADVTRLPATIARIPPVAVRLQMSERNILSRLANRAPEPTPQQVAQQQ

Experiments:
full-length Flag-CHD4 = molecular target: T1, full-length Flag-CHD4 (Homo sapiens, UniProt Q14839); experiment: Biolayer interferometry (BLI) binding kinetics of peptides to CHD4; settings: N-biotinylated peptides immobilized, sequentially diluted full-length Flag-CHD4
T1 construct: made in house; host or cells: Sf9 (recombinant baculovirus)
Description: We next examined peptide binding sites on the CHD4 domain and measured affinity to further confirm the interaction. Multiple CHD4 deletion proteins were expressed and purified from recombinant baculovirus-infected Sf9 cells with Flag-agarose beads (FIG. 7a). An equal molecular amount of recombinant proteins was coated on an ELISA plate and increasing concentrations of biotinylated peptides were incubated. […] Binding affinity to the fill-length CHD4 was also calculated with Bio-Layer Interferometry (BLI). […] The N-biotinylated VGN73 or control peptides were first immobilized on a streptavidin-coated chip, and sequentially diluted full-length Flag-CHD4 proteins were applied. The interaction was then detected with interferometry.
To evaluate of binding kinetics of VGN73 and mutant peptide to CHD4, assays were carried out by biolayer interferometry (BLI) on Octet-Red 384 (ForteBio, CA, USA) at 30° C. with shaking at 1,000 RPM. Streptavidin (SA) tips (Sartorius, Goettingen, Germany) were dipped in 200 μL of biotinylated peptide (VGN73, mutant or TAT) solution (1 μM in 1× kinetic buffer) for the loading step. […] Binding kinetics was evaluated using a 1:1 binding model by ForteBio Data Analysis 8.1 software to obtain the dissociation constant KD.

CHD4 and LANA = molecular target: T2, CHD4 and LANA (Homo sapiens, UniProt Q14839); experiment: Peptide pull-down with streptavidin beads from BC3 cells; assay type: cell-based; settings: biotinylated peptide 10 μM, streptavidin magnetic beads
T2 construct: endogenous in cells; host or cells: BC3

[1] = system: primary effusion lymphoma (PEL) cells (BC3, BCBL-1); assay type: cell-based
Description: FIG. 4 VGN73 inhibits cell growth on various cancer cell types and induces apoptosis and autophagy in BC3 cells. FIG. 4a. MT assays were performed with the indicated cell lines treated with various VGN73 and mutant peptide concentrations for 24 hours. The OD of mock-treated samples were set as 100%, and OD from detergent-treated cells were set as 0%. Mean percentage viability±SD was calculated for each treatment (n=3 samples/treatment). FIG. 4b. VGN73 induces apoptosis. BC3 cells were incubated with of VGN73 (18 μM) for 0, 1, 4, and 24 hours, followed by measurements of percentage apoptosis induction (Annexin V staining) by flow cytometry. Median percentage apoptosis was calculated for each treatment time (n=3 samples/treatment time) (a). […] Cleaved caspase 3 were calculated by normalizing to untreated sample, and untreated sample set as 100% (b). […] Median percentage apoptosis was calculated for each treatment time (n=3 samples/treatment) (a). […] ratios were calculated by normalizing to untreated sample, and untreated sample set as 100% (b). […] Cell viability were determined by MTT assay (n=5 samples/treatment). *; p<0.05. **; p<0.01 versus the control group, #; p<0.05 versus the Z-VAD-FMK group.
The cytotoxic activity of VGN73 and mutant peptide were measured using the MTT assay. […] The optical densities (ODs) were measured at 570 nm with a Benchmark Plus Microplate Spectrophotometer (Bio-Rad). […]

THP-1 cells = experiment: MTT cell viability assay, THP-1; assay type: cell-based; settings: 24 hours
[2] = system: HaCaT cells, immortalized keratinocytes; experiment: MTT cell viability assay, HaCaT; assay type: cell-based; settings: 24 hours
normal PBMCs = experiment: MTT cell viability assay, PBMC; assay type: cell-based; settings: 24 hours; compared with monocytic leukemia cell lines
BC3 cells [3] = experiment: Apoptosis by Annexin V flow cytometry; assay type: cell-based; settings: 18 μM, 0, 1, 4, 24 hours
BC3 cells [4] = experiment: Autophagy by Autophagy Red flow cytometry; assay type: cell-based; settings: 18 μM, 24 hours, rapamycin 50 nM positive control
U937 cells = experiment: U937 monocyte-macrophage differentiation model (total RNA-sequencing, flow cytometry); assay type: cell-based, human
[5] = Maximum tolerated dose in NRG mice; assay type: in vivo
BCBL-1 cells = experiment: PEL xenograft mouse model; assay type: in vivo, NRG mice

For CC[C@H](C)[C@H](NC(=O)[C@@H](NC(=O)[C@H](C)NC(=O)[C@H](Cc1c[nH]cn1)NC(=O)[C@H](CCCCN)NC(=O)[C@H](Cc1c[nH]c2ccccc12)NC(=O)CCNC(=O)[C@H](CCCNC(=N)N)NC(=O)[C@H](CCCNC(=N)N)NC(=O)[C@H](CCCNC(=N)N)NC(=O)[C@H](CCCN)NC(=O)[C@H](CCCNC(=N)N)NC(=O)[C@H](CCCNC(=N)N)NC(=O)[C@H](CCCCN)NC(=O)[C@H](CCCCN)NC(=O)[C@H](N)CCCNC(=N)N)C(C)C)C(=O)N[C@@H](Cc1ccccc1)C(=O)N[C@@H](Cc1c[nH]c2ccccc12)C(=O)NCC(=O)N[C@@H](CC(N)=O)C(=O)N[C@@H](CC(=O)O)C(=O)N1CCC[C@H]1C(=O)N[C@@H](Cc1ccc(O)cc1)C(=O)NCC(=O)N[C@@H](CC(C)C)C(=O)N[C@@H](CCCCN)C(=O)N[C@@H](CCCCN)C(=O)O [VGN73, (d-Arg}KKRR{ORN}RRR{β-Ala}WKHAVIFWGNDPYGLKK], the “binding to CHD4 by BLI” value (full-length Flag-CHD4) was “binds to CHD4”, the “peptide-bound CHD4 or LANA precipitated from cells” value (CHD4 and LANA) was “precipitated more of CHD4 and LANA than the overall background” and the “cancer cell death in vitro tissue culture” value [1] was “effectively induces cancer cell death”. For the same compound, the “PEL cell growth (MTT)” value ([1]; 0-64 μM, 24 hours) was “inhibited PEL cell growth in a dose-dependent manner”, the “sensitivity of THP-1 cells (MTT)” value (THP-1 cells) was “highest sensitivity; also recorded: most sensitive” and the “sensitivity of HaCaT cells (MTT)” value [2] was “resistant; also recorded: not very sensitive”. The “sensitivity of normal PBMCs (MTT)” value (normal PBMCs) was “relatively resistant; also recorded: not very sensitive”, the “cellular apoptosis (Annexin V)” value (BC3 cells [3]) was “induces cellular apoptosis” and the “autophagy / auto-phagosome formation (Autophagy Red)” value (BC3 cells [4]) was “induced autophagy in BC3 cells similarly to rapamycin treatment”. The “macrophage and dendritic cell marker on the cell surface (flow cytometry)” value (U937 cells; U937, 4 μM 2 days, then PMA 10 ng/mL 3 days) was “increased macrophage and dendritic cell marker on the cell surface”, the “PMA-mediated upregulated genes after VGN73 pretreatment (total RNA-sequencing)” value (U937 cells; U937, 4 or 8 μM 24 hours, then PMA 10 ng/mL 24 hours) was “significantly increased the repertories of PMA-mediated upregulated genes” and the MTD ([5]; both sexes, NRG, mouse, in vivo, ip, intraperitoneally every other day) was 12.5 mg/kg. For the same compound, the mice died ([5]; injections of more than 15 mg/kg) was “one of eight”, the “dose showing a sign of discomfort such as decreased overall mobility” value ([5]; intraperitoneal injections) was “more than 15 mg/kg” and the ascites fluid produced (BCBL-1 cells; 10 mg/kg i.p. every other day, Day 19) was “very little ascites fluid was produced”. The “BCBL-1 growth by bioluminescence imaging” value (BCBL-1 cells; 10 mg/kg i.p. every other day, days 14 and 19) was “substantially inhibited”, the “total number of PEL cells in ascites fluid” value (BCBL-1 cells; Day 19, flow cytometry) was “inhibition of PEL growth” and the “CHD4 and LANA signals in PEL cells from xenograft tumors” value (BCBL-1 cells; IFA of ascites cells) was “lowered both CHD4 and LANA signals”. For the same compound, the “CD38 gene expression in recovered PEL cells” value (BCBL-1 cells; RT-qPCR, ascites cells) was “significantly downregulated; also recorded: significantly decreased”, the “CD19 gene expression in recovered PEL cells” value (BCBL-1 cells; RT-qPCR, ascites cells, did not meet statistical significance) was “slightly increased” and the “side effects in mice” value (BCBL-1 cells; therapeutic dose) was “no measurable side effects”.
